Columns and labels:
metastatic CRC patients = assay: Kaplan-Meier progression free survival analysis, BMS (Khambata-Ford) cetuximab clinical trial dataset; assay type: in vivo, human
Excerpt: (§1) The potential of the EPI^S score vs. the TME^S score was examined to predict outcomes in metastatic CRC patients treated with cetuximab in two independent clinical trial datasets (BMS (Khambata-Ford), Merck (PN04)). Higher EPI^S scores were highly associated with longer progression free survival (PFS) in the BMS dataset with all patients regardless of KRAS mutation status) (n=80, Logrank trend P=0.0005, median survival (days): 103.5 (Q4, highest) vs. 53 (Q1, lowest)) and in the subset of WT KRAS patients (n=43, P=0.0062, median survival (days): 135.0 (Q4) vs. 49.5 (Q1)) (FIGS. 8A and 8B).
(§2) The PN04 dataset had 44 WT KRAS CRC samples selected from the control arm (cetuximab+irinotecan) of a Merck prospective clinical trial (MK0646), whereas the public available Khambata-Ford dataset was from a BMS trial including 80 cetuximab-treated CRC patient samples among which 43 had WT KRAS. The Affymetrix data was used to examine the ability of the 10-gene EPI^S(vs. 10-gene TME^S) signature score in predicting progression free survival (PFS) in cetuximab-treated metastatic patients.
Statistical analyses, including Kaplan Meier (KM) survival, Spearman correlation, heatmap, Welch's t Test, Cramer's V Test, and CMS and PDS classifications were performed using GraphPad Prism 10.0.2, SAS 9.4 and R version 4.3. The statistical tests with an α=0.05 were chosen as the significance level. In addition, for the Welch t test in comparison among multiple subgroups, adjusted p values after adjustments for multi-comparisons by Holm-Bonferroni method were indicated. All tests were two-sided unless indicated otherwise.

[1] = system: WT KRAS metastatic CRC patients; assay: Kaplan-Meier progression free survival analysis, Merck (PN04) cetuximab clinical trial dataset; assay type: in vivo, human; details: WT KRAS patients (n=44), control arm (cetuximab+irinotecan)
Excerpt: as §1, §2
Statistical analyses, including Kaplan Meier (KM) survival, Spearman correlation, heatmap, Welch's t Test, Cramer's V Test, and CMS and PDS classifications were performed using GraphPad Prism 10.0.2, SAS 9.4 and R version 4.3. The statistical tests with an α=0.05 were chosen as the significance level. […]

cetuximab
median survival (progression free survival) (metastatic CRC patients; all patients regardless of KRAS mutation status (n=80), EPI^S score quartile Q1, lowest): 53 days | median survival (progression free survival) (metastatic CRC patients; all patients regardless of KRAS mutation status (n=80), EPI^S score quartile Q4, highest): 103.5 days | median survival (progression free survival) (metastatic CRC patients; subset of WT KRAS patients (n=43), EPI^S score quartile Q1): 49.5 days | median survival (progression free survival) (metastatic CRC patients; subset of WT KRAS patients (n=43), EPI^S score quartile Q4): 135.0 days | median survival (progression free survival) ([1]; EPI^S score quartile Q1): 75.5 days | median survival (progression free survival) ([1]; EPI^S score quartile Q4): 208.0 days

Source: patent US20250305059A1, “[…] COLORECTAL CANCER” (UNIVERSITY OF SOUTH FLORIDA, priority 2024, published 2025)
